# Where a name gives a salt, the structure may show the parent alone.
# Columns and labels:
# Type in all cases: physicochemical
# [1] = pH-stability profile at 55° C. of doxorubicin.HCl solutions in sterile water, 5% dextrose, 0.9% saline
# [2] = Shelf-life (t 90%) forecast of doxorubicin.HCl 2 mg/ml sterile water solution adjusted to pH 3.0
# Description: The Arrhenius equation for the degradation process was calculated from the Kobs obtained from the different temperatures taken in account for the testing (table 11).
# Applying the equation, the rate constants for the pseudo-first order reactions at 4° C., 8° C., 15° C. and 27° C. were calculated, together with the expected t90% at these temperatures.
# [3] = Shelf-life (t 90%) forecast of doxorubicin.HCl 2 mg/ml solution in 5% dextrose adjusted to pH 3.0; conditions: 5% dextrose pH 3.0, 55° C., 4 days
smiles,measurement,setting,value
"COc1cccc2c1C(=O)c1c(O)c3c(c(O)c1C2=O)C[C@@](O)(C(=O)CO)C[C@@H]3O[C@H]1C[C@H](N)[C@H](O)[C@H](C)O1 [Doxorubicin.HCl, doxorubicin hydrochloride]",Doxorubicin.HCl % stability,"[1]; 0.9% saline, pH 2.5 buffer, 8 hours",96.3%
same,Doxorubicin.HCl % stability,"[1]; 0.9% saline, pH 5.0 buffer, 16 hours",74.2%
same,Doxorubicin.HCl % stability,"[1]; 5% dextrose, pH 4.0 buffer, 24 hours",83.1%
same,Doxorubicin.HCl % stability,"[1]; 5% dextrose, pH 4.0 buffer, 34 hours",74.2%
same,Doxorubicin.HCl % stability,"[1]; sterile water, pH 2.5 buffer, 72 hours",50.2%
same,Doxorubicin.HCl % stability,"[1]; sterile water, pH 5.0 buffer, 48 hours",52.5
same,Doxorubicin.HCl % stability,"[2]; sterile water pH 3.0, 35° C., 14 days",94.8%
same,Doxorubicin.HCl % stability,"[2]; sterile water pH 3.0, 45° C., 4 days",96.3%
same,Doxorubicin.HCl % stability,[3],81.3%

# — US6632799B2, “Injectable ready-to-use solutions containing an antitumor anthracycline glycoside” (Pharmacia & Upjohn Company, priority 1985, dated 2003)
